PMC6255834, “Single point mutations reveal amino acid residues important for Chromobacterium violaceum transaminase activity in the production of unnatural amino acids” (Scientific Reports, 2018)

Assays:
Assay in all cases: purified protein
C[C@H](N)c1ccccc1 = settings: amino donor, pH 7, 45 °C
CCCCCCC(=O)C(=O)O = settings: amino acceptor, 10 mM 1-PEA as donor, pH 7, 45 °C
COC(=O)CC(C)=O = settings: amino acceptor, 10 mM 1-PEA as donor, pH 7, 45 °C
[1] = first half-reaction only, no keto acceptor, 5 mM PLP, 1 mg/ml enzyme
[2] = lowest concentration tested 0.1 mM
[3] = full reaction with 2.5 mM 2-OOA as acceptor

Substance	Km (C[C@H](N)c1ccccc1; [1])	kcat (C[C@H](N)c1ccccc1; [1])	kcat/Km (C[C@H](N)c1ccccc1; [1])	Km (CCCCCCC(=O)C(=O)O; [2])	kcat (CCCCCCC(=O)C(=O)O; [2])	kcat/Km (CCCCCCC(=O)C(=O)O; [2])	Km (COC(=O)CC(C)=O)	kcat (COC(=O)CC(C)=O)	kcat/Km (COC(=O)CC(C)=O)	Km (C[C@H](N)c1ccccc1; [3])	kcat (C[C@H](N)c1ccccc1; [3])	kcat/Km (C[C@H](N)c1ccccc1; [3])	Km (CCCCCCC(=O)C(=O)O)	kcat (CCCCCCC(=O)C(=O)O)	kcat/Km (CCCCCCC(=O)C(=O)O)
CV_TA (Chromobacterium violaceum DSM30191 transaminase; ω-TA) (Chromobacterium violaceum ATCC 12472; W60C)	1200 ± 100 µM	0.06 s⁻¹	43.3 M⁻¹ s⁻¹												
CV_TA (Chromobacterium violaceum DSM30191 transaminase; ω-TA) (Chromobacterium violaceum ATCC 12472; W60C/Y168F)	4400 ± 100 µM	0.0567 s⁻¹	13.3 M⁻¹ s⁻¹	40 µM	0.182 s⁻¹	4540 M⁻¹ s⁻¹									
CV_TA (Chromobacterium violaceum DSM30191 transaminase; ω-TA) (Chromobacterium violaceum ATCC 12472; Y168F)							7100 ± 600 µM	0.137 s⁻¹	20 M⁻¹ s⁻¹	1100 ± 300 µM	0.487 s⁻¹	428 M⁻¹ s⁻¹	200 ± 70 µM	0.358 s⁻¹	2110 M⁻¹ s⁻¹
